Results published in PubChem BioAssay AID602340 (Broad Institute, 2012).
Only a part is listed here, and it is no random draw. Calls of active or inactive are those of the source.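 Rule for the calls: active = mean ATP rescue above about 67%, or every replicate alone reaching that limit (limit read from the data, passing the limit was not always enough); inconclusive = no clear call, values can overlap the other calls; inactive = mean under the limit and some replicate under it.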

Assay: protection of differentiated C2C12 cells from simvastatin – single point, plate reader, primary screen (AID 602340);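 note: myotubes were challenged with 10 µM simvastatin during compound exposure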
Conditions: C2C12 myotubes + simvastatin, ATP luminescence, 48 h; at 7.49 µM; hits give high values; scaled: DMSO 0, geranylgeraniol control 100

Row | Structure (SMILES) | rescue of ATP level
1 | CCC(=O)N(c1ccccc1)C1(COC)CCN(CCc2cccs2)CC1 | inactive: 7.81%
2 | CCC(=O)N(c1ccccc1)C1(COC)CCN(CCn2nnn(CC)c2=O)CC1 | inactive: 0.402%
